Data from PubChem BioAssay AID1381 (University of Pittsburgh Molecular Library Screening Center, 2008).
The list shows a part of the results, in another mix than the full data. Active and inactive are the calls of the source.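 How the source made its calls: active means plate z-score of nuclear minus cytoplasmic receptor signal below a set negative limit, without overly bright fluorescence or cell loss (cut at about -3.5 in these data, passing the limit was not always enough); inactive means the rest, inconclusive results apart.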

Experiment: inhibitors of GR-EGFP nuclear translocation, primary screen, dynein cargo transport inhibitor project, imaging, high-content, 3617.4 mouse cells (AID 1381)
Conditions: active compounds read low, stimulated with dexamethasone, 1 µM; at 20 µM unless noted

Row | Compound | z-score
1 | Cc1cc(SC(NC(=O)c2ccccc2)C(Cl)(Cl)Cl)nc(C(C)C)n1 (stereo unspecified) | inactive: -0.864
2 | O=[N+]([O-])c1ncn(CCn2ncnc2[N+](=O)[O-])n1 | inactive: 0.0493
3 | CC(C)(C)C(=O)NC(Sc1ccncn1)C(Cl)(Cl)Cl (stereo unspecified) | inactive: -1.25
4 | O=C(O)CNc1ccc([As](=O)(O)O)cc1 | inactive: -0.618
5 | O=[N+]([O-])c1cccc(NC2=NCC(CBr)S2)c1 (stereo unspecified) | inactive: 0.546
6 | CP(=O)(OC12CC3CC(CC(C3)C1)C2)OC12CC3CC(CC(C3)C1)C2 | inactive: -0.0317
7 | CCOC(=O)c1ccc(NP(C)(=O)Oc2ccc(Cl)cc2)cc1 (stereo unspecified) | inactive: -0.596
8 | O=C(Nc1cc([As](=O)(O)O)ccc1O)c1ccccc1 | inactive: -0.952
9 | CCN(/C(=N/P(=O)(N1CCOCC1)N1CCOCC1)N1CCOCC1)c1ccc(OC)cc1 | inactive: 2.13
10 | CP(=O)(Nc1ccc(Cl)cc1)Oc1ccc(F)cc1 (stereo unspecified) | inactive: -1.08 [at 50 µM]
11 | Nc1ccc([As](=O)(O)c2ccc(N)cc2)cc1 | inactive: 1.04
12 | CC(C)(C)c1ccc(OP(C)(=O)O)cc1 | inactive: 0.0111 [at 50 µM]
13 | COc1ccccc1OP(C)(=O)Nc1ccccc1Br (stereo unspecified) | inactive: 0.134
14 | C[N+]1=C2C=CC=CC=C2SC12C([N+](=O)[O-])=CC([N+](=O)[O-])=C[C-]2[N+](=O)[O-] (stereo unspecified) | inactive: -2.04
15 | CC1CCN(C(=O)Oc2c(Cl)cc(Cl)c3cccnc23)CC1 | inactive: -0.318 [at 50 µM]
16 | CC(C)=N/N=C(\N)N[N+](=O)[O-] | inactive: 0.512
17 | CN(C)C(=O)c1c([N+](=O)[O-])cc([N+](=O)[O-])cc1[N+](=O)[O-] | inactive: -1.56
18 | CN(C)C(=O)OCCc1n(C)cc[n+]1C | inactive: -0.34
19 | CCN(CC)CC(O)COC(=O)C(O)(c1ccccc1)C1CCCCC1 (stereo unspecified) | inactive: -0.429

Row | Compound | z-score
20 | COc1ccc(C2=NCC(CBr)S2)cc1 (stereo unspecified) | inactive: 0.877
21 | COc1ccc(OP(C)(=O)Nc2ccc(Br)cc2)cc1 (stereo unspecified) | inactive: 1.81
22 | Cc1ccc(NP(=O)(Oc2ccccc2)Oc2ccccc2)nc1 | inactive: -1.41
23 | CP(=O)(Oc1ccccc1)N1CCOC1=O (stereo unspecified) | inactive: -0.933
24 | O=[N+]([O-])c1cc([N+](=O)[O-])c(CCNc2ccccc2)c([N+](=O)[O-])c1 | inactive: 0.0369
25 | CCc1nc2c(n1)c1c(non1O)c1c2no[n+]1[O-] | inactive: -3.23
26 | CCc1ccc(OP(C)(=O)Nc2cccnc2)cc1 (stereo unspecified) | inactive: -0.111
27 | COc1ccccc1OP(C)(=O)Nc1c(C)n(C)n(-c2ccccc2)c1=O (stereo unspecified) | inactive: -0.758
28 | CC(=O)N1C2C3N(C(C)=O)C1C1N(C(C)=O)C(C(N1C(C)=O)N3C(C)=O)N2C(C)=O | inactive: 0.488
29 | O=[N+]([O-])c1cccc2n[nH]nc12 | inactive: 0.684 [at 50 µM]
30 | O=C(OCCCN1CCCC1)C(O)(c1ccccc1)C1CCCCC1 (stereo unspecified) | inactive: -0.575
31 | Oc1ccccc1CNc1ccccn1 | inactive: -0.212
32 | O=C(NC(Sc1ccncn1)C(Cl)(Cl)Cl)c1ccccc1 (stereo unspecified) | inactive: 0.168
33 | O=[N+]([O-])c1cc([N+](=O)[O-])c(Nc2ccccn2)c([N+](=O)[O-])c1 | inactive: -1.01
34 | CC(C)CC(=O)NC(Sc1ccc(Cl)cc1)C(Cl)(Cl)Cl (stereo unspecified) | inactive: -0.324
35 | Nc1cc(N)c2nonc2c1[N+](=O)[O-] | inactive: 0.257
36 | Cc1c(NP(C)(=O)Oc2ccc(C(C)C)cc2)c(=O)n(-c2ccccc2)n1C (stereo unspecified) | inactive: 1.16 [at 50 µM]
37 | CCc1ccc(OP(C)(=O)O)cc1 | inactive: -0.0781 [at 50 µM]
38 | CP(=O)(Nc1ccccn1)Oc1ccccc1 (stereo unspecified) | inactive: 0.153 [at 50 µM]

Row | Compound | z-score
39 | COc1ccccc1OP(C)(=O)Nc1ccc(C)cc1C (stereo unspecified) | inactive: 0.61
40 | COc1ccccc1OP(C)(=O)Nc1ccc(Br)cc1 (stereo unspecified) | inactive: -0.697
41 | Cc1ccc(N/C(=N/P(=O)(N2CCOCC2)N2CCOCC2)N2CCOCC2)cc1 | inactive: 0.755
42 | NC(=O)c1cc([N+](=O)[O-])cc([N+](=O)[O-])c1N | inactive: -0.418
43 | CN(C)CCOC(=O)C(O)(c1ccccc1)C1CCCC1 (stereo unspecified) | inactive: 0.181 [at 50 µM]
44 | Clc1ccc(Cl)c(NC2=NCC(CBr)S2)c1 (stereo unspecified) | inactive: 0.0844
45 | CN1CCCC(OC(=O)C(c2ccccc2)c2ccccc2)C1 (stereo unspecified) | inactive: -0.0656 [at 50 µM]
46 | COc1ccc(OP(C)(=O)Nc2ccccn2)cc1 (stereo unspecified) | inactive: 0.405
47 | COc1ccccc1OP(=O)(Nc1ccc(C)cn1)Oc1ccccc1OC | inactive: 2.28
48 | Cc1ccc(OP(=O)(Nc2nccs2)Oc2ccc(C)cc2)cc1 | inactive: -0.354
49 | Cc1nc2ccc3ccccc3c2o1.O=[N+]([O-])c1cc([N+](=O)[O-])c(O)c([N+](=O)[O-])c1 | inactive: -0.325
50 | Nc1cccc2ccc([As](=O)(O)O)cc12 | inactive: 0.41
51 | CP(=O)(OCCOc1ccccc1)OCCOc1ccccc1 | inactive: 0.104
52 | CP(=O)(Nc1ccc(Cl)cc1Cl)Oc1ccccc1 (stereo unspecified) | inactive: -0.516
53 | CCN(N=Nc1nonc1N)c1nonc1N | inactive: -0.01
54 | Cc1cc(C)cc(OP(C)(=O)Nc2cccc(C(F)(F)F)c2)c1 (stereo unspecified) | inactive: -0.251
55 | O=P(Nc1nc2ccc(Cl)cc2s1)(c1ccccc1)c1ccccc1 | inactive: -0.412
56 | O=C(O)c1ccccc1[As](=O)(O)O | inactive: 0.887
